Here are results for one compound from US20160052955A1, “[…] INHIBITORS FOR TREATING CANCERS” (SLOAN-KETTERING INSTITUTE FOR CANCER RESEARCH, priority 2013, published 2016).

Sequences of proteins named here, by UniProt entry; tags and fusion partners are left off. Residues count along the entry.
UniProt Q99873, 10-352 isoform Q99873-3: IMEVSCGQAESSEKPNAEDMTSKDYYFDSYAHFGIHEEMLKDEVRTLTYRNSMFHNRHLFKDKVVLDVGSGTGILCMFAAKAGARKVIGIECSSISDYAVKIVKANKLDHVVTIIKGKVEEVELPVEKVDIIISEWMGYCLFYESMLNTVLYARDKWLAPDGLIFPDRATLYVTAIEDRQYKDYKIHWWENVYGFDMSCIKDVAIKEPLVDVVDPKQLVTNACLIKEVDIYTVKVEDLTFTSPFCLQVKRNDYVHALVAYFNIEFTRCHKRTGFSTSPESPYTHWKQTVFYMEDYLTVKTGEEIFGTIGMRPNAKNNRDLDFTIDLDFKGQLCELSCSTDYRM

The assay deals with T1, PRMT1 (10-352) (Homo sapiens, UniProt Q99873).
T1 construct: PRMT1 (10-352)
In words: Filter-paper methyltransferase assay, PRMT1. The format is biochemical.

In turn, `Nc1ncnc2c1ncn2[C@@H]1O[C@H](C[C@@H](N)CC[C@H](N)C(=O)O)[C@@H](O)[C@H]1O` [Sinefungin, sinefungin, reference compound] gave a half-inhibitory concentration (IC50) of 1030 nM. In other words, the single-digit micromolar range.

Usually IC50 stands for the concentration that gives 50% inhibition. Read a high IC50 as a need for much substance.
